Data on one compound can be found in paper PMC9574862, “Designing Soluble PROTACs: Strategies and Preliminary Guidelines” (Journal of Medicinal Chemistry, 2022).

Broadly, the solubility is the dissolved amount per volume that the medium holds. Read a high solubility as much dissolved substance. One may read the chromatographic logD as a lipophilicity value derived from retention on a column. The low end stands for lower lipophilicity, the high end for higher lipophilicity.

Series [1] can be described thus: Thermodynamic solubility, shake-flask, 10 mM PBS (0.15 M KCl) pH 7, 25 °C, 1 h, HPLC-UV. To be noted: pH 7, aqueous buffer, thermodynamic from solid, Exp.LogS, PROTAC pairs and building blocks. As to the method:
Its measurement only requires an initial DMSO stock solution which is precipitated by the addition of an aqueous phase.[23],[24] Here, we measured thermodynamic solubility, often determined in late lead optimization, which efficiently considers the solubility value when the equilibrium with the stable phase or polymorph has been reached.
Solubility was determined in 10 mM PBS (0.15 M KCl) at pH 7, 25 °C. A 1–2 mg sample of each molecule was added to the same quantity (1–2 mL) of the mentioned buffer to obtain 1 mg/mL solutions in the vial. Samples were then submitted to 25 °C and magnetic stirring (500 rpm) for 1 h. […] The amount of dissolved compound in each sample was then quantified, in duplicate, via HPLC using ultraviolet (UV) spectrometric detection.
Variable volumes of pure DMSO (0–100 μL) were added separately to small and defined (1 mg) quantities of each compound to obtain clear solutions. […] Calibration points were then measured via HPLC-UV.
The mobile phase consisted of a solution of acetonitrile (ACN) and 20 mM ammonium acetate buffer (AAB), pH 7, freshly prepared. A 10 μL volume of each sample (volume of injection) was injected at an isocratic 1 mL/min flow rate analyzed at 30 °C (oven temperature). […]
Injections were performed in duplicate for each molecule’s calibration points. […] Samples were then injected in duplicate, and the AUC averages and standard deviations were calculated. […]

The nature of a further series: physchem. To be noted: pH 7. As to the method: PROTAC experimental solubility was first correlated with lipophilicity descriptors (log P is implemented in the general solubility equation (GSE)[27]). As described by some of us,[16] BRlogD represents a validated,[28] very useful and straightforward chromatographic descriptor for the logarithm of the distribution coefficient in the n-octanol/water system (log D) of neutral and cationic bRo5 molecules.
The mobile phase consisted of an isocratic solution of 20 mM ammonium acetate (pH 7.0) and acetonitrile, 40–60%, respectively (v/v).[16] Samples were dissolved in buffer/ACN and injected into the XBridge column at a flow rate of 1.0 mL/min at 30 °C. Retention times were determined in duplicate, and the dead time, t0, was recorded as the baseline disturbance.

The conditions of series [2]: pH 7.0, extrapolated to 0% acetonitrile. On the procedure:
The logarithm of the capacity factor of an IAM column system, extrapolated at 100% water (log kw^IAM), is also an experimental descriptor of the lipophilicity of drugs since it mimics the interaction between the polar heads of the membrane phospholipids and the drug in solution.[29]
The mobile phase consisted of a solution of 20 mM ammonium acetate (pH 7.0) in a mixture with acetonitrile at various percentages (from 10 to 50%, v/v). Samples were dissolved in buffer/ACN and injected into the previously mentioned IAM column at a flow rate of 1.0 mL/min at 30 °C. Chromatographic retention data were determined in duplicate for the different mobile phase conditions. Data were recorded as log k′ (capacity factor k′ = [tR – t0]/t0), where tR and t0 are the retention times of the sample and a nonretained molecule (citric acid), respectively. Thus, log kw^IAM values were calculated by an extrapolation method of the experimental equation, at 0% acetonitrile. Moreover, five gold standard compounds (caffeine, carbamazepine, ketoprofen, theobromine, and toluene) were checked daily.

In series [1], `COC(=O)C[C@@H]1N=C(c2ccc(Cl)cc2)c2c(sc(C(=O)O)c2C)-n2c(C)nnc21` [PROTAC BET-binding moiety 2] registered a solubility at 1 h of over 2240 µM. This compound also yielded a chromatographic logD in “physchem” of -0.03. The “Log kw IAM” value in series [2] was 0.53.
